Values quoted from earlier work as cited in patent US10946071B2, “Combination of ibudilast and interferon-beta and methods of using same” (MediciNova, Inc., priority 2018, dated 2021).

System: secondary progressive multiple sclerosis patients
Conditions: cited from earlier work

B1: interferon-beta: polypeptide, normally produced by fibroblasts, that has antiviral and antiproliferative effects; e.g. Avonex, Betaseron, Extavia, Rebif, Plegridy (protein, UniProt P01574 22-187, looked up)
Interferon beta: MSYNLLGFLQRSSNFQCQKLLWQLNGRLEYCLKDRMNFDIPEEIKQLQQFQKEDAALTIYEMLQNIFAIFRQDSSSTGWNETIVENLLANVYHQINHLKTVLEEKLEKEDFTRGKLMSSLHLKRYYGRILHYLKAKEYSHCAWTIVRVEILRNFYFINRLTGYLRN
- prevention of development of permanent physical disability (recombinant interferon-beta, SPMS patients, Filippini et al., Cochrane 2012): did not prevent the development of permanent physical disability
- efficacy in clinical trials (EU SPMS, NA SPMS, SPECTRIMS, IMPACT) (secondary progressive multiple sclerosis patients, review by Jakimovski et al.): failed to be efficacious

B2: interferon-beta-1a: therapeutic form of interferon-beta produced in mammalian cells (Avonex, Rebif) (protein, UniProt P01574 22-187, looked up)
Interferon beta: B1 Interferon beta
modifications: interferon beta-1a
- natural history of lesion development (chronic black holes) (patients with SPMS, Traboulsee et al. 2017): appears to be unaffected
